Source: patent US10543298B2, “Salts of tetracyclines” (Hovione Scientia Limited, priority 2015, dated 2020)

Experiment: Solubility in buffers at pH 1.0, 1.2, 4.5, 6.8 and 7.5
Details: for Solubility pH = 1.0 (volume of solvent required for dissolution per gram of solute): buffer pH 1.0, KCl 0.2 M / HCl 0.2 M; for Solubility pH = 1.2 (volume of solvent required for dissolution per gram of solute): buffer pH 1.2, KCl 0.2 M / HCl 0.2 M; for Solubility pH = 4.5 (volume of solvent required for dissolution per gram of solute): buffer pH 4.5, potassium biphthalate 0.2 M / HCl 0.2 M; for Solubility pH = 6.8 (volume of solvent required for dissolution per gram of solute): buffer pH 6.8, monobasic potassium phosphate 0.2 M / NaOH 0.2 M; for Solubility pH = 7.5 (volume of solvent required for dissolution per gram of solute): buffer pH 7.5, monobasic potassium phosphate 0.2 M / NaOH 0.2 M

Solubility pH = 1.0 (volume of solvent required for dissolution per gram of solute) | Solubility pH = 1.2 (volume of solvent required for dissolution per gram of solute) | Solubility pH = 4.5 (volume of solvent required for dissolution per gram of solute) | Solubility pH = 6.8 (volume of solvent required for dissolution per gram of solute) | Solubility pH = 7.5 (volume of solvent required for dissolution per gram of solute) | Substance
30 ml/g | 30 ml/g | 38 ml/g | 77 ml/g | 67 ml/g | Demeclocycline Maleate
10 ml/g | 18 ml/g | 53 ml/g | 34 ml/g | 77 ml/g | Demeclocycline Oxalate
